Laboratory results published in ChEMBL document CHEMBL5252528, “Transient Receptor Potential Melastatin 8 Channel (TRPM8) Modulation: Cool Entryway for Treating Pain and Cancer” (J Med Chem, 2016).

The chains behind the UniProt entries cited, without tags or fusion partners.
UniProt Q7Z2W7, whole entry: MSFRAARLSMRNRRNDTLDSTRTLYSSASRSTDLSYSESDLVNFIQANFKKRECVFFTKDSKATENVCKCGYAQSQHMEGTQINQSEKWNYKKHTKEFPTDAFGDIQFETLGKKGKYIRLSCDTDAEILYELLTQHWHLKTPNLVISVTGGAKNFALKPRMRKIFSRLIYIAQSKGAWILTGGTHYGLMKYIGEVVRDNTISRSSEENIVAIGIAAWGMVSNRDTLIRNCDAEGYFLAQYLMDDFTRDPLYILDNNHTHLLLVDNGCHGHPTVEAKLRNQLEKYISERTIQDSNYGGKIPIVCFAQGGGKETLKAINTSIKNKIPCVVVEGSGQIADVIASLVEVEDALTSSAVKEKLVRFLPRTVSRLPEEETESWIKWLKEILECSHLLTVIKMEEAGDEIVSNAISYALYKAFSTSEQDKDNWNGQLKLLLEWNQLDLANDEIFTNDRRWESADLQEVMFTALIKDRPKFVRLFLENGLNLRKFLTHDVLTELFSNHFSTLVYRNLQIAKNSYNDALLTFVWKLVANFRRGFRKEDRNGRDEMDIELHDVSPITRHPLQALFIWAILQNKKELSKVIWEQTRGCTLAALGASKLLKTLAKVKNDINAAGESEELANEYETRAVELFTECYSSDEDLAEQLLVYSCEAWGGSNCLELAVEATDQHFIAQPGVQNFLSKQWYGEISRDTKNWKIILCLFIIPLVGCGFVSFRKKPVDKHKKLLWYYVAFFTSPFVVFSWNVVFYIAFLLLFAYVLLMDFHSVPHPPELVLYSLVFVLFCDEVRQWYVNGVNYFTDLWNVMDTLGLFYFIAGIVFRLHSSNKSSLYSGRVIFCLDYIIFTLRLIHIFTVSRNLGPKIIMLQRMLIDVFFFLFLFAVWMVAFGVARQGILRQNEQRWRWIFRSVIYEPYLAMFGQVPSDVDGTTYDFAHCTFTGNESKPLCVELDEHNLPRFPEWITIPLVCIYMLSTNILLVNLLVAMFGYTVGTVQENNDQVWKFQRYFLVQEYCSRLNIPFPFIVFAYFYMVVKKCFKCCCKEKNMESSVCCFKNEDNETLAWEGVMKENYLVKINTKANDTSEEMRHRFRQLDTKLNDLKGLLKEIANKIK

Biological target: Transient receptor potential cation channel subfamily M member 8 (Homo sapiens, UniProt Q7Z2W7)
Test: Antagonist activity at cold activated human TRPM8 expressed in HEK293 cells
Type: cell-based

- pIC50: 8.00
SMILES: CCn1nnc(-c2sc(-c3cccc(F)c3)nc2O)n1

pIC50: −log10 of the molar value.
